{"source": "patent US9603836B2", "about": "“Pyrrolidine-2, 5-dione derivatives, pharmaceutical compositions and methods for use as IDO1 inhibitors” (ITEOS THERAPEUTICS, priority 2014, dated 2017)", "system": "T-cell proliferation", "assay": "IDO1-dependent T cell proliferation: SKOV-3 PBMC co-culture", "assay_type": "cell-based", "conditions": "Homo sapiens; restoration of T cell proliferation, Thymidine incorporation; average of three independent experiments", "experimental": "The compounds of the present invention restore T-cell proliferation in a SKOV-3 PBMC co-culture assay.\nThe assay was performed in 96-well flat bottom plates seeded with the human ovarian adenocarcinoma SKOV-3 cell line [SKOV-3; SKOV3] (ATCC® HTB-77™)] and co-cultured with human peripheral blood mononuclear cells (PBMC) stimulated with CD3/CD28 beads and rhIL-2.\nTo adhere, irradiated SKOV-3 cells (concentration of 150×10^3 cells/well) were incubated overnight at 37° C. at 5% CO2 in Iscove's Modified Dulbecco's Medium (IMDM) (Lonza) supplemented with 50% FBS, 2% penicillin/streptomycin and 2 mM Ultraglutamin, in a final volume of 150 μL. Isolated PBMCs (stimulated with CD3/CD28 beads and rhIL-2 (30 U/mL)) were added in a ratio of 1:1. After 24 h of co-culture ^3H-Thymidine (1 μCurie/10 uL) was added to assess proliferation (TopCount counter, Perkin Elmer) after overnight incubation in the presence of 50% serum.\nTo determine the effect of IDO1 inhibition on restoration of T cell proliferation, the compounds of the present invention were co-incubated at different concentrations.", "note": "pEC50: −log10 of the molar value."}
{"smiles": "O=C1C[C@H](c2c[nH]c3ccc(F)cc23)C(=O)N1", "note": "[Compound 2, (−)-(R)-3-(5-fluoro-1H-indol-3-yl)pyrrolidine-2,5-dione]", "values": [{"measurement": "pEC50", "result": 7.13}]}
